For 1 molecule, DC50 results are on record in patent publication US12377152B2, “Compounds for degrading alpha-synuclein aggregates and uses thereof” (APRINOIA THERAPEUTICS LIMITED, priority 2019, dated 2025).

For the assay, the target named is α-synuclein aggregates (Homo sapiens (Human), UniProt P37840). The assay is described as follows: ReNcell VM α-synuclein aggregation assay. Particulars: read-out: Activity (DC50, concentration at which 50% of α-synuclein aggregates has been degraded); ReNcell VM cells. As for the experimental part: The ReNcell VM α-synuclein aggregation assay was conducted at Charles River Laboratories (CRL). ReNcell VM is an immortalized human neural progenitor cell line derived from the ventral mesencephalon region of the brain. ReNcell VM cells were selected as in vitro cellular model for the α-synuclein aggregation assay, based on their growth features, differentiation potential into terminally differentiated neurons and amenability to adenoviral transduction. Aggregated human wild type α-synuclein was overexpressed through adenoviral delivery. Aggregated α-synuclein was detected with the aggregate-selective anti-α-synuclein antibody MJFR14 using immunocytochemistry; total α-synuclein levels were detected with Syn205 (α/β-synuclein-specific antibody).
The ReNcell VM α-synuclein aggregation assay was applied for compound screening to identify compounds capable of degrading α-synuclein aggregates. […] Immunoreactivity toward aggregated (MJFR14) and total α-synuclein (Syn205) was quantified using high content-based segmentation of immunoactive areas in immunocytochemical images (performed with the IN Cell 2200 (GE Healthcare)), followed by quantification of immunofluorescent intensity (performed by CRL's developed algorithm using IN Cell Developer Toolbox software).
Percentage effect (PE): Inhibition in comparison to BLANK (0.1% DMSO).
PE=100−(signal of compound/average signal BLANK)×100 […]

On to `CN(C)c1ccc(-c2ccc(-c3nc4ccc(NCCNC(=O)COc5ccc6c(c5)CN(C5CCC(=O)NC5=O)C6=O)cc4s3)c(C(F)(F)F)c2)cn1` (stereo not shown), for which the DC50 fell in the range of 10 to 900 nM.
